Screening data as filed in PubChem BioAssay.
miR-21 reporter: miR-21 reporter, rising signal | HeLa miR-21 FLuc reporter, luciferase, 48 h | Potency, µM (highest dose often 38.3 µM) | 340,000 tested, under 10 active | AID 2288; active = well fitted rising curve with a large enough effect; inconclusive = small, poorly fitted or top-dose-only effect; inactive = no such curve, though single readings can be large or run the other way;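 further: miR-21 action dims this reporter so a rising signal means less miR-21 action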
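HeLa cells stably expressing CMV-driven firefly luciferase with a downstream miR-21 binding sequence, endogenously expressing miR-21, were treated with titrations (up to about 40uM final) for 48 hours at 37 degree Celsius. Luciferase luminescence was read after lysis.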
TrxR1 inh: rat TrxR1 inhibition; Potency, µM (top dose mostly 114 µM), actives largely listed as inhibitors; hit rate 1% among 390,000; recombinant rTrxR1, NADPH fluorescence consumption, selenite substrate; AID 588453; further: nearly all actives have a fitted effect of over 65% in size
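Rat TrxR1 (90 nM in the dispensed reagent) was pre-reduced with 400 uM NADPH for 5 min at room temperature, then incubated with compound for 15 min. After 400 uM selenite was added, NADPH fluorescence (Ex 340/Em 450 nm) was followed for 8 min.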
TrxR1 substrate: substrates of rat thioredoxin reductase 1; purified TrxR1 substrate turnover, NADPH consumption readout; Potency, µM (doses to about 114 µM); hit rate 0.01% among 390,000; AID 588456; further: nearly all actives have a fitted effect of over 50% in size
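Rat TrxR1, dispensed at 90 nM, was prereduced with 400 uM NADPH (final) for 5 min at ~22 deg C, then incubated with compound 15 min before 400 uM selenite. A first-read NADPH fluorescence drop versus no-compound background flagged substrates.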
ClpP mod: qHTS Assay for Activators of ClpP | Potency, µM (highest dose often 57.5 µM) | purified B. subtilis ClpP, FRET peptide cleavage, 20 min | ATP-dependent Clp protease proteolytic subunit (Bacillus subtilis (strain 168)), P80244 | AID 651965, 2013 | hit rate 1.9% among 340,000; active means well fitted falling curve with a large enough effect; inconclusive means small, poorly fitted or top-dose-only effect; inactive means no such curve, though single readings can be large or run the other way; further: the source files actives as falling curves though it sought activators and does not explain the sign; nearly all actives have a fitted effect of over 65% in size
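ClpP 10 microg/mL final, pH 8 Tris/KCl buffer with BSA, glycerol, Tween-20; compound pinned in; FRET-FV substrate; RT 20 min; Ex320/Em430; ΔFRET vs ADEP 5.8 microM, DMSO, no enzyme.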
Anesthetic bind: binds horse apoferritin like a general anesthetic; apoferritin/1-aminoanthracene competitive binding, fluorescence; Potency, µM (top dose mostly 77.5 µM), actives largely listed as inhibitors; hit rate 0.074% among 350,000; AID 485281; further: nearly all actives have a fitted effect of over 20% in size
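Horse-spleen apoferritin (10 uM) in 50% saturated 1-aminoanthracene in PBS was incubated 10 min at room temperature with compound. Fluorescence (ex 380, em 535 nm) was normalized to free and bound 1-AMA, with concentration-response fitted by a four-parameter Hill equation.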
Hits are given with their value; i = inactive; ? = inconclusive; nt = no result; [ ] = remark or other dose. A selection: hits, their analogues and other compounds. The true share with any hit is near 2.5%. Unless noted, the call rests on the fitted dose curve; in most records, active means well fitted curve in the direction sought with a large enough effect; inconclusive means small, poorly fitted or top-dose-only effect, or another doubt; inactive means no such curve, though single readings can be large; an effect the other way counts as inactive or inconclusive.

Amino acid sequences for entries named in this document (tags omitted).
ATP-dependent Clp protease proteolytic subunit (Bacillus subtilis (strain 168)), P80244, UniProt P80244, whole entry, looked up: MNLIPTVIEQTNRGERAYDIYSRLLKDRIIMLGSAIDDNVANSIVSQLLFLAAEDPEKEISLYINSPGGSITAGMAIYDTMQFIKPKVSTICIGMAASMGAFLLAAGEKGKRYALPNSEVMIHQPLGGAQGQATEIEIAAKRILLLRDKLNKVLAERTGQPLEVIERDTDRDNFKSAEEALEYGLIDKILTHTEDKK

SMILES	miR-21 reporter	TrxR1 inh	TrxR1 substrate	ClpP mod	Anesthetic bind
Cc1c(CNCCCc2ccccc2)c(C(=O)O)c(C)n1Cc1cccc(Cl)c1	i	i	i	i	i
CCc1ccc(C2C(C(=O)Nc3ccc(Cl)cc3)=C(C)Nc3ncnn32)cc1 (configuration not stated)	i	i	i	i	i
COc1cccc(C2CC(c3cccs3)=NN2C(=O)CSc2nc3ccccc3s2)c1OC (configuration not stated)	i	i	i	28µM	i
Cc1ccc(C2CC(c3cccs3)=NN2C(=O)CSc2nc3ccccc3o2)cc1 (configuration not stated)	i	i	i	14µM	i
O=C(CSc1nc2ccccc2o1)N1N=C(c2cccs2)CC1c1ccc(F)cc1 (configuration not stated)	i	i	i	32µM	i
O=C(CSC1=NCCS1)N1N=C(c2cccs2)CC1c1ccc(F)cc1 (configuration not stated)	nt	nt	nt	i	nt
Cc1c(C(=O)Nc2ccc(F)c(Cl)c2)sc2nc3n(c(=O)c12)CCC3	i	i	i	i	i
COc1ccccc1-c1noc(-c2ccc(N3CCOCC3)c([N+](=O)[O-])c2)n1	i	i	i	i	i
Cc1cccc(Cn2cnc3c(cnn3C(C)(C)C)c2=O)c1	nt	i	i	nt	nt
CCc1ccc(S(=O)(=O)Nc2ccc3[nH]c(=O)sc3c2)cc1	i	i	i	i	i
COc1ccccc1NC(=S)NN=C(C)c1ccccn1	nt	11µM	i	i	nt
CCOc1ccc2cc(C#N)c(SCC(=O)N3CCOCC3)nc2c1	i	i	i	25µM	i
CCOC(=O)CSc1nc2cc(OC)ccc2cc1C#N	i	i	i	32µM	i
CCOC(=O)CSc1nc2cc(C)ccc2cc1C#N	i	i	i	i	i
CCCCCCCCCCCCCC[C@@H](O)[C@@H](O)[C@H](CO)NC(C)=O	nt	nt	nt	nt	i
C=C1c2cccc(O)c2C(O)=C2C(=O)[C@@]3(O)C(O)=C(C(N)=O)C(=O)[C@@H](N(C)C)[C@@H]3[C@@H](O)[C@H]12	nt	nt	nt	nt	i
Cc1nn2c(C(F)(F)F)cc(-c3ccc(OC(C)C)cc3)nc2c1C#N	i	i	i	5µM	i
O=S(=O)(Nc1cc(Br)cc2cccnc12)c1ccccc1	nt	i[0.457 µM]	i[0.457 µM]	nt	nt
Cc1ccc(NC(=O)Cn2c(=O)n(CC3CCCO3)c(=O)c3ccccc32)cc1 (configuration not stated)	i	i	i	i	i
O=C1C=CC2=C3c4cc(O)c(O)cc4CC3(O)COC2=C1O (configuration not stated)	nt	16µM	i	i	nt
COc1ccccc1N1CCN(CCN2C(=O)C3CCCCN3C2=O)CC1 (configuration not stated)	i	i	i	32µM	i
CC1CCN(C(=O)c2ccc(S(=O)(=O)Cc3cccc(F)c3)c([N+](=O)[O-])c2)CC1	i	?	i	?	i
O=C(c1ccc(S(=O)(=O)Cc2cc(F)ccc2F)c([N+](=O)[O-])c1)N1CCCC1	i	10µM	i	nt	i
O=C(c1ccc(S(=O)(=O)Cc2cc(F)ccc2F)c([N+](=O)[O-])c1)N1CCCCC1	i	4.5µM	i	i	i
COc1cc(NC(=O)c2cc3nc(-c4ccc(C)cc4)cc(C(F)(F)F)n3n2)cc(OC)c1OC	i	i	i	i	i
SMILES	miR-21 reporter	TrxR1 inh	TrxR1 substrate	ClpP mod	Anesthetic bind
C#CCSc1nnc(-c2sc(-c3ccccc3)nc2C)n1C	i	i	i	18µM	i
C#CCSc1nnc(-c2c[nH]c3ccccc23)n1C	i	i	i	i	i
O=C(c1cc2ccccc2[nH]1)c1cc2cc(O)ccc2[nH]1	nt	i	i	i	nt
Cc1ccc(C(=O)Nc2c(C)cc(-c3ccc(Cl)cc3)oc2=O)cc1	i	i	i	14µM	i
Cc1cc(-c2ccc(Cl)cc2)oc(=O)c1NC(=O)c1ccccc1	i	i	i	?	i
O=C(Nc1ccc2c(c1)N(C1CCCC1)C(=O)c1ccccc1S2)c1cccc(F)c1	?	i	i	i	i
O=C(C=Cc1cccs1)c1ccccc1	nt	i	i	13µM	nt
O=C(/C=C/c1cccs1)c1ccc(NC(=O)c2ccccc2F)cc1	i	i	i	i	i
O=[N+]([O-])c1cc([N+](=O)[O-])c2nonc2c1Nc1ccc(O)cc1	i	28µM	i	i	i
COC(=O)C1Cc2c([nH]c3ccccc23)CN1 (configuration not stated)	i	?	i	32µM	i
CN(C(=O)c1ccc2c(c1)N(Cc1cccc(Cl)c1)C(=O)c1ccccc1S2(=O)=O)C1CCCCC1	i	i	i	i	i
COc1ccc(-n2nc3c(c2NC(=O)C(C)Oc2ccccc2)CS(=O)C3)cc1 (configuration not stated)	i	i	i	32µM	i
Cn1cc(C2NC(=O)c3ccccc3N2)c2ccccc21 (configuration not stated)	nt	i[11.4 µM]	i	28µM	nt
Cc1ccc(C)c(C2NC(=O)c3ccccc3N2)c1 (configuration not stated)	i	i	i	i	i
CC(C)C1Oc2ccccc2N(CC(=O)N(Cc2ccccn2)CC2CCCO2)C1=O (configuration not stated)	i	i	i	i	i
Cc1ccc(CN(CC2CCCO2)C(=O)CN2C(=O)C(C(C)C)Oc3ccccc32)o1 (configuration not stated)	i	10µM	i	i	?
CCN1C(=O)C(CC(=O)Nc2ccc(OC)cc2)N(CCc2ccc(F)cc2)C1=S (configuration not stated)	?	i	i	11µM	i
COc1ccc(NC(=O)CC2C(=O)N(Cc3ccccc3)C(=S)N2CCN2CCOCC2)cc1 (configuration not stated)	i	i	i	8.9µM	i
COc1ccc(NC(=O)CC2C(=O)N(C)C(=S)N2CCc2ccc(F)cc2)cc1 (configuration not stated)	?	i	i	i	i
Cc1ccc(Cl)cc1N1CCN(C(c2ccc(F)cc2)c2nnc(-c3ccccc3)o2)CC1 (configuration not stated)	i	i	i	i	i
Cc1ccc2[nH]c(=O)c3cc(C(=O)NCCCN4CCC(C)CC4)sc3c2c1	i	i	i	13µM	i
Cc1ccc2nc(Cl)c3cc(C(=O)NCCCN4CCC(C)CC4)sc3c2c1	i	i	i	i	i
CCN1CCN(CCCNC(=O)c2cc3c(=O)[nH]c4ccccc4c3s2)CC1	i	i	i	8.9µM	i
O=C(NCCCN1CCOCC1)c1cc2c(=O)[nH]c3ccccc3c2s1	i	?	i	i	i
CCN(Cc1ccccc1)Cc1c(O)ccc2c(=O)c(-c3ccccc3OC)c(C(F)(F)F)oc12	i	i	i	i	i
